These results are taken from PubChem BioAssay AID2094 (Broad Institute, 2009).

The list shows a part of the results, in another mix than the full data. Calls of active or inactive are those of the source. Cut-off read from the data, not from the text of the source: active = activity change below about -75% (passing the limit was not always enough); inconclusive = no clear call, values can overlap the other calls.

This experiment is described as follows: modulation of AI-2 quorum-sensing luminescence – JMH597 strain, luminescence/OD600 ratio, primary screen (AID 2094).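 Note: luminescence divided by OD600 gain over 9 h not by final OD600 alone.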 Particulars: Vibrio harveyi JMH597 AI-2 luminescence/OD600 ratio, 9 h; at 7.5 µM; active compounds read low; 0 = neutral-control median; strain lacks LuxN and CqsS sensors.
With `Nc1ccccc1[As](=O)(O)c1ccccc1`, the activity change is inactive: 20.1%. As to `O=C(O)COc1ccc([As](=O)(O)O)cc1[N+](=O)[O-]`, the activity change was inactive: -10.8%.

`O=P1(Nc2ncccn2)COc2ccccc2OC1`: the activity change was inactive: 27.3%.

For `Cc1ccc(OCC(=O)OC2CN3CCC2CC3)cc1` (configuration not stated), the activity change is inactive: 31%. The figure for `O=[As](O)(c1cccs1)c1cccs1` is inactive: 20.5%; for `O=P1(Nc2ccc(Br)cn2)COc2ccccc2OC1` it is inactive: 28.4%. With `Nc1cccc([As](=O)(O)c2ccccc2)c1`, the activity change was inactive: 20.2%. With `Cc1nn(-c2ccccc2)c2c1P(=O)(N1CCOCC1)N(C)C(c1ccccc1)=N2` (configuration not stated), the activity change was inactive: 15.6%. As to `CC1CCC(C(C)C)C(OP(=O)(Nc2ccccn2)c2ccccc2)C1` (configuration not stated), the activity change was inactive: 18%.

For `Cc1ccc(C(=O)OC2CN3CCC2CC3)cc1` (configuration not stated), the activity change was inactive: 1.44%. `O=C(/C=C/c1ccccc1)OC1CN2CCC1CC2` (configuration not stated): the activity change was inactive: 5.93%.

As for `CN(C)C1(CNC(=O)c2ccc(S(C)(=O)=O)cc2)CCCCC1`, the activity change is inactive: 32.7%. The figure for `COc1ccccc1CNC(=O)COC(=O)C(O)(c1ccccc1)c1ccccc1` is inactive: 21.2%; for `O=[As](O)(c1ccccc1Br)c1ccccc1Br` it is inactive: 23.8%. For the molecule `CC1(CBr)Cn2c(nc3ccccc3c2=O)S1` (configuration not stated), the activity change was inactive: 10.7%. The figure for `CC(C)/C=N\N=C(\N)N[N+](=O)[O-]` is inactive: 35.2%; for `CN(C(=O)Cc1ccc(Cl)c(Cl)c1)[C@@H]1CCCC[C@H]1N1CCCC1` it is inactive: 7.31%; for `CCOP(=O)(Nc1ccc(C)cn1)OCC` it is inactive: -7.11%. For the molecule `CN(CCCl)Cc1cc(Cl)c(NC2=NCCN2)c(Cl)c1`, the activity change is inactive: 20%.

For `O=P1(Nc2ccccn2)COc2ccccc2OC1`, the activity change is inactive: 25.9%. Regarding `CCC1=CC2Cc3nc4ccc(Cl)cc4c(N)c3C(C1)C2` (configuration not stated), the activity change was inactive: 6.22%. The figure for `CCOP(=O)(NC(=NC(C)c1ccccc1)NC(C)c1ccccc1)OCC` (configuration not stated) is inactive: -4.67%; for `Clc1n[nH]nc1-c1nn[nH][15n]1` it is inactive: 12.4%; for `CC(C)(C)C(=O)NC(Sc1ncccn1)C(Cl)(Cl)Cl` (configuration not stated) it is inactive: 10.6%. With `CCOC(=O)c1ccc(NC(=O)C(C)(CCl)SC)cc1` (configuration not stated), the activity change is inactive: 9.74%. In the case of `O=C(OC1CN2CCC1CC2)c1cccc([N+](=O)[O-])c1` (configuration not stated), the activity change is inactive: 31%. As to `CCC(C)N(CC(C)C)C(=S)SC(NC(C)=O)C(Cl)(Cl)Cl` (configuration not stated), the activity change is inactive: 14.9%. In the case of `COP1(=S)c2c(C)nn(CCC#N)c2N=C(c2ccc(F)cc2)N1C` (configuration not stated) it was inactive: -1.18%; in that of `O=C(COc1ccccc1)OC1CN2CCC1CC2` (configuration not stated), inactive: 12.3%. Take `O=C(Nc1ccncc1[N+](=O)[O-])c1ccc([N+](=O)[O-])cc1[N+](=O)[O-]`: the activity change was inactive: 20.3%. Regarding `CCOC(=O)Nc1cccc([As](=O)(O)O)c1`, the activity change was inactive: 20.2%. In the case of `O=[N+]([O-])c1ccc(Nc2ccc(Oc3ccc([N+](=O)[O-])cc3[N+](=O)[O-])cc2)c([N+](=O)[O-])c1` it was inactive: 21.8%. On to `O=P(Nc1ccccn1)(c1cccc2ccccc12)c1cccc2ccccc12`, for which the activity change is inactive: 12.2%. On to `Cc1cc(SC(NC=O)C(Cl)(Cl)Cl)ncn1` (configuration not stated), for which the activity change is inactive: 14.5%. Regarding `CCOC(=O)Nc1ccc([As](=O)(O)O)c(O)c1`, the activity change is inactive: 33.6%. Take `CCCCOc1ccc(C(=O)NCC2(N3CCCCC3)CCCCC2)cc1OC`: the activity change is inactive: 2.84%. The figure for `Cc1cc(SC(NC(=O)c2ccccc2)C(Cl)(Cl)Cl)nc(C(C)C)n1` (configuration not stated) is inactive: 8.49%; for `CC(C)c1ccc(OP(=O)(Nc2ccccn2)Oc2ccccc2F)cc1` (configuration not stated) it is inactive: 0.0304%. In the case of `ClCCSc1nnc(-c2cccnc2)o1` it was inactive: 11.2%; in that of `CC(C)NC(=O)NP(=O)(Oc1ccccc1)Oc1ccccc1`, inactive: 8.64%; in that of `CCN(CC)C(=S)SC(NC=O)C(Cl)(Cl)Cl` (configuration not stated), inactive: 6.26%.

As to `O=[N+]([O-])c1cc([N+](=O)[O-])c(-c2ccn[nH]2)s1`, the activity change was active: -188%.

For `O=[As](O)(c1ccc(O)cc1)c1ccccc1O`, the activity change is inactive: 18.4%. As for `C[As](=O)(O)c1cccc(C(=O)O)c1`, the activity change is inactive: -0.292%. Regarding `Cc1ccc2nc3c(c(C)c2c1)CC(C(Cl)Cl)S3` (configuration not stated), the activity change was inactive: 33.3%.

`Cc1ccc(OP(=O)(Nc2ccc([N+](=O)[O-])cn2)Oc2ccc(C)cc2)cc1`: the activity change is inactive: 3.48%. Take `COc1ccc(N/C(=N/P(=O)(N2CCOCC2)N2CCOCC2)N2CCOCC2)cc1`: the activity change was inactive: 2.34%. For the molecule `O=C(OC1CN2CCC1CC2)C12CC3CC(CC(C3)C1)C2` (configuration not stated), the activity change was inactive: -3.53%. As for `Cc1cc(=O)[nH]c(N[N+](=O)[O-])n1`, the activity change was inactive: 33.3%.

In the case of `Cc1c2c(nc3ccccc13)SC(C(Cl)Cl)C2` (configuration not stated), the activity change is inactive: 3.78%. In the case of `COc1ccc2nc(NP(=O)(c3ccccc3)c3ccccc3)sc2c1` it was inactive: 11.4%; in that of `COc1cc(I)ccc1[As](=O)(O)O`, inactive: 16.7%.
